The values below are quoted from earlier work in patent US5589337A (priority 1995, dated 1996).

One data set relates to ada gene. Conditions: cited from earlier work.
The subject of another data set is merR gene. Conditions: cited from earlier work.

On to `CN(N=O)C(=N)N[N+](=O)[O-]`, for which, in the data set on ada gene, the “ada gene expression induction” value is reported as “induce ada gene expression”. Regarding elemental mercury, the merR gene response entry in the data set with merR gene is “responds”.
